The target in the experiment is Mu-type opioid receptor (Rattus norvegicus, UniProt P33535). Nature of the experiment: Inhibition of radioligand [3H]DAMGO binding to rat brain Opioid receptor mu 1 […]. The essentials:
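Rat brain membranes were labelled with [3H]DAMGO (1–3 nM) for 4 h at 25 °C in 50 mM Tris-HCl pH 7.4 with protease inhibitor cocktail. Nonspecific binding was set with 20 μM levallorphan. Displacement used 8–10 drug concentrations, run twice, with drug diluted in Tris pH 7.4 containing 1 mg/mL BSA. IC50 and slope factor came from curve fitting.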

Sequences of proteins named here, by UniProt entry; tags and fusion partners are left off.
UniProt P33535, whole entry: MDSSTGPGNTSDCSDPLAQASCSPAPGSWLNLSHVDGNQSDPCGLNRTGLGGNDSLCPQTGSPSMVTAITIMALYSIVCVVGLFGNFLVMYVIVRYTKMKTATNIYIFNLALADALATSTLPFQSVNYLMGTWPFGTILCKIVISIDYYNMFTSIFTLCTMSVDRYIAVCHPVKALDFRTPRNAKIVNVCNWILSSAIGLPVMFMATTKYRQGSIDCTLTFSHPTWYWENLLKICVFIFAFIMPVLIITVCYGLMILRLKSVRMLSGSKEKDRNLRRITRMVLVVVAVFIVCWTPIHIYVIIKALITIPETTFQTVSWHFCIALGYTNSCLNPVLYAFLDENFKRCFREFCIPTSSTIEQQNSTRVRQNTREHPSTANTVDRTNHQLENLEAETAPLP

SMILES strings stand for the structures.

On to `C=CCN1C[C@@H](C)N([C@H](c2ccc(C(=O)N(CC)CC)cc2)c2cccc(O)c2)C[C@@H]1C` (single isomer, unassigned), for which the IC50 – broadly, the concentration that inhibits the measured activity by half – turned out to be 0.167 µM. Consider `C=CCN1C[C@H](C)N([C@H](c2ccc(C(=O)N(CC)CC)cc2)c2cccc(O)c2)C[C@H]1C` (stereo in doubt; (-)-1), for which the IC50 turned out to be 2.32 µM.

The values are drawn from ChEMBL document CHEMBL1130417 (J Med Chem, 1997).
